The list shows a part of the results, in another mix than the full data. The source made the active and inactive calls.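 Rule for the calls: active = activation above the mean over all tested compounds plus 3 SD (cut at about 30% in these data); inactive = the rest.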
These compounds were tested against Troponin I, cardiac muscle (Homo sapiens) + Troponin T, cardiac muscle (Homo sapiens) + Troponin C, slow skeletal and cardiac muscles (Homo sapiens) (UniProt P19429+P45379+P63316) (assay: calcium sensitizers of cardiac thin filaments – biochemical, IANBD-TnC fluorescence, EC20 calcium, primary screen (AID 493008;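 note: rise in fluorescence read as greater calcium sensitivity of cardiac thin filaments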)). Conditions: IANBD-labeled TnC RTF fluorescence at EC20 calcium; at 7.2 µM; hits give high values; 0% EC20 calcium, 100% full calcium.
In the case of `CCCOc1ccc(NP(C)(=O)Oc2ccc(Cl)cc2)cc1` (stereo not given), the activation is reported as inactive: 2.47%.
In the case of `CP(=O)(Nc1ccc(SC(F)(F)F)cc1)Oc1ccccc1` (stereo not given), the activation is reported as inactive: -1.73%.
In the case of `CCOC(=O)C(CC)C1=NC(C)(C)Cc2ccccc21.O=[N+]([O-])c1cc([N+](=O)[O-])c(O)c([N+](=O)[O-])c1` (stereo not given), the activation is reported as inactive: 4.29%.
With `CC1=C2N=C(C=C3N=C(C(C)=C4[N-][C@@](C)([C@@H]5N=C1[C@](C)(CCC(=O)NC[C@@H](C)OP(=O)([O-])O[C@H]1[C@@H](O)[C@@H](n6cnc7cc(C)c(C)cc76)O[C@@H]1CO)[C@H]5CC(N)=O)[C@@](C)(CC(N)=O)[C@@H]4CCC(N)=O)[C@@](C)(CC(N)=O)[C@@H]3CCC(N)=O)C(C)(C)[C@@H]2CCC(N)=O.[C-]#N.[Co+3]` the activation was inactive: 1.73%.
`O=[N+]([O-])c1cc([N+](=O)[O-])c(Nc2nnnn2CCO)c([N+](=O)[O-])c1` was tested, and the activation was inactive: -2.48%.
`O=[N+]([O-])c1cc([N+](=O)[O-])c(-c2cnn(-c3ccccc3)c2)c([N+](=O)[O-])c1` was tested, and the activation was inactive: 1.01%.
`Cc1nc2ccc3ccccc3c2s1.O=[N+]([O-])c1cc([N+](=O)[O-])c(O)c([N+](=O)[O-])c1` was tested, and the activation was inactive: 5.8%.
For `O=[N+]([O-])c1cc([N+](=O)[O-])c(-n2nnc3ccccc32)c([N+](=O)[O-])c1`, the activation was inactive: 9.21%.
With `CCOP(C)(=S)SCC(=O)NC(C)C(=O)O` (stereo not given) the activation was inactive: -1.35%.
`CCOC(=O)c1ccc(NP(C)(=O)Oc2ccc(OC)cc2)cc1` (stereo not given) was tested, and the activation was inactive: -3.28%.
`CP(=O)(Nc1ccccn1)Oc1ccc(Cl)cc1` (stereo not given) was tested, and the activation was inactive: -2.21%.
In the case of `CP(=O)(Oc1ccccc1)OC(c1ccccc1)C(F)(F)F` (stereo not given), the activation is reported as inactive: 3.14%.
In the case of `Cc1cccc(C)c1OP(C)(=O)Nc1ccc(SC(F)(F)F)cc1` (stereo not given), the activation is reported as inactive: 15.4%.
With `Cc1cc(C)cc(OP(C)(=O)Nc2ccc(SC(F)(F)F)cc2)c1` (stereo not given) the activation was inactive: -6.22%.
`CP(=O)(NC(=O)Nc1ccccc1)Oc1ccccc1` (stereo not given) was tested, and the activation was inactive: 2.05%.
`CCc1ccc(OP(C)(=O)N2CCN(c3ccc([N+](=O)[O-])cc3)CC2)cc1` (stereo not given) was tested, and the activation was inactive: -0.25%.
In the case of `CP(=S)(Nn1cnnc1)Oc1ccccc1` (stereo not given), the activation is reported as inactive: -6.3%.
In the case of `COc1ccccc1OP(C)(=O)Nc1ccccc1` (stereo not given), the activation is reported as inactive: 3.55%.
In the case of `CP(=O)(Nc1ccccc1Br)Oc1ccccc1` (stereo not given), the activation is reported as inactive: 5.93%.
`CCOC(=O)c1ccc(NP(C)(=O)Oc2ccccc2)cc1` (stereo not given) was tested, and the activation was inactive: -5.57%.
With `Cc1ccc(NP(C)(=O)Oc2ccccc2)c(C)c1` (stereo not given) the activation was inactive: 5.97%.
In the case of `COc1ccccc1OP(C)(=O)Nc1ccc(C)cc1` (stereo not given), the activation is reported as inactive: -1.01%.
`COc1ccc(OP(C)(=O)Nc2cccc(F)c2)cc1` (stereo not given) was tested, and the activation was inactive: 5.21%.
With `COc1ccccc1OP(C)(=O)Nc1cc(Cl)ccc1C` (stereo not given) the activation was inactive: 3.35%.
`Cc1cc(C)cc(OP(C)(N)=O)c1` (stereo not given) was tested, and the activation was inactive: 5.01%.
`O=[N+]([O-])c1cc([N+](=O)[O-])c(Nc2cccnc2)c([N+](=O)[O-])c1` was tested, and the activation was inactive: 7.54%.
In the case of `Cc1cccc(C)c1OP(C)(N)=O` (stereo not given), the activation is reported as inactive: -4.08%.
In the case of `CC(C)(C)c1ccc(OP(C)(=O)Nc2ccc(SC(F)(F)F)cc2)cc1` (stereo not given), the activation is reported as inactive: -2.54%.
`O=[N+]([O-])c1ccc2c(c1)C=Nc1ccccc1O2` was tested, and the activation was inactive: -0.81%.
With `CCN(CC)CCCOC(=O)C(O)(c1ccccc1)c1ccccc1` the activation was inactive: -0.26%.

— PubChem BioAssay AID493008 (The Scripps Research Institute Molecular Screening Center, 2010)
